According to publication PMC8333062, “Chemical tools for epichaperome-mediated interactome dysfunctions of the central nervous system” (Nature Communications, 2021):
Where “and” joins values, the source holds several entries; their conditions need not be identical. Equal values may be shown once.

Key:
[1] = tested on: tumor endothelial cells in GBM explants; experiment: Active caspase-3 in CD105+ve cells of explants; conditions: 1 µM, explants #30; listed as PU-HZ151
[2] = [131I]-labeled agents, radioactivity in plasma and brain; type: in vivo, mouse; design: unit not given beside the values; conditions: radioactivity %ID g-1

SMILES: CC(C)(C)CNCCn1c(Sc2cc3c(cc2I)OCO3)nc2c(N)ncnc21 [Compound 85]
- %Increase Active Caspase-3 (CD105+ve cells) [1]: 428% and 256% and 246%
- AUCbrain PU-HZ151 : PU-H71 [2]: 12.9
